Test system: HGG glioma cells
Assay: SYTOX green staining of glioma cells (plasma membrane rupture, ferroptosis)
Type: cell-based
Settings: co-treatment with 13i, FIG. 11A-C

Substance: alpha-ketoglutarate [reference compound]
- rescue of 13i treatment effect by co-treatment: rescued 13i treatment effect
